From publication PMC11089511 (Journal of Medicinal Chemistry, 2024)

Assay: not given
Settings: 1 μM compound, rat plasma, 6 h dialysis

| Compound | plasma protein binding in rats (% unbound) |
| --- | --- |
| CCc1oc2cccc(Cl)c2c1C(=O)c1cc(I)c(O)c(I)c1 [Compound 6, (4-Chloro-2-ethylbenzofuran-3-yl)(4-hydroxy-3,5-diiodophenyl)methanone] | <0.01 |
| CCc1oc2c(Cl)ccc(Cl)c2c1C(=O)c1cc(I)c(O)c(I)c1 [Compound 7, (4,7-Dichloro-2-ethylbenzofuran-3-yl)(4-hydroxy-3,5-diiodophenyl)methanone] | <0.01 |
| CCc1oc2cccc(C)c2c1C(=O)c1cc(I)c(O)c(I)c1 [Compound 8, (2-Ethyl-4-methylbenzofuran-3-yl)(4-hydroxy-3,5-diiodophenyl)methanone] | <0.01 |
| CCc1oc2cccc(Br)c2c1C(=O)c1cc(I)c(O)c(I)c1 [Compound 5, (4-Bromo-2-ethylbenzofuran-3-yl)(4-hydroxy-3,5-diiodophenyl)methanone] | <0.01 |
| CCc1oc2cccc(I)c2c1C(=O)c1cc(I)c(O)c(I)c1 [Compound 4, (2-Ethyl-4-iodobenzofuran-3-yl)(4-hydroxy-3,5-diiodophenyl)methanone] | <0.01 |

Assay: in vitro
Settings: PAMPA

| Compound | recovery at 4 h, 80 μM [%] |
| --- | --- |
| CCc1oc2c(Cl)ccc(Cl)c2c1C(=O)c1cc(I)c(O)c(I)c1 [Compound 7, (4,7-Dichloro-2-ethylbenzofuran-3-yl)(4-hydroxy-3,5-diiodophenyl)methanone] | 42 |
